What was measured:
SMARCA2 [1] = target: T1, SMARCA2 (Homo sapiens, UniProt P51531); assay: MSD SMARCA2 degradation in A549 cell line; conditions: for SMARCA2 MSD A549 degradation 24 h: Average Dmax %: A549 cells; for DC50: read-out: SMARCA2 MSD A549 degradation 24 h: Average external-Abs DC50, A549 cells
Method: Cells were seeded into 96-well plates (A549 cells: 2×10^4 cells/well/100 ul media) abd incubated overnight. The next day, 200 nl compound were added into the intermediate plate with Echo (Labcyte 550) from source plate containing a 3-fold serial dilution from top concentration of 1 mM. The culture medium was changed with 80 ul of fresh medium and 80 ul of 2× compound solution was added into the well to make a final concentration of 1000 nM, 333.3 nM, 111.1 nM, 37.04 nM, 12.35 nM, 4.115 nM, 1.372 nM, 0.457 nM, 0.152 nM and 0 nM (DMSO). The wells were mixed and then incubated for 24 hours. The media was aspirated from the cultures and 60 ul pre-chilled PIPA lysis buffer (Boston BioProducts BP-115D) with protease/phosphatase inhibitor (Roche 05892791001/Roche 04906837001) was added into the well to lyze the cells for 20 minutes at 4° C. The MSD plate (L15XA) was coated with 40 ul cell lysate and incubated at 4° C. overnight. The next day, the plate was washed three times with TBST (CST #9997S), 150 ul/well. The MSD plates was blocked with 150 ul blocking buffer per well and shaked for 1 hr at RT, 600 rpm. The blocking buffer was 3% Blocker A (MSD, R93BA-4) in TBST. The MSD plate was washed three times with 150 ul/well of TBST and 25 ul/well of detection antibody (Rabbit anti-SMARCA2/BRM antibody, 100 μg/ml, ab223735) was added at final concentration of 1 ug/ml diluted in 1% Blocking buffer and shaken for 1 hour at RT, 600 rpm. The MSD plate was washed three times with 150 ul/well of TBST and 25 ul/well of SULFO-TAG anti-rabbit antibody (MSD, R32AB-1) was added at final concentration of 1 ug/ml diluted in 1% Blocking buffer and shaken for 1 hour at RT, 600 rpm. The MSD plate was washed three times with 150 ul/well of TBST and 150 ul/well of 2×MSD reading buffer diluted from 4× (MSD, R92TC-2) with water was added. Lastly, the MSD instrument was read.
(§1) The letter codes for SMARCA2 degradation potency (DC50) include: A (<100 nM), B (100-500 nM), C (501-1000 nM), and D (>1000 nM). The letter codes for the percentage of SMARCA2 degradation after 24 hours (Dmax %) include: A (>90% degradation), B (>70-90% degradation), C (50-70% degradation), and D (<50% degradation).

By UniProt entry, the sequences of proteins in these tests, tags left out.
UniProt P51531, whole entry: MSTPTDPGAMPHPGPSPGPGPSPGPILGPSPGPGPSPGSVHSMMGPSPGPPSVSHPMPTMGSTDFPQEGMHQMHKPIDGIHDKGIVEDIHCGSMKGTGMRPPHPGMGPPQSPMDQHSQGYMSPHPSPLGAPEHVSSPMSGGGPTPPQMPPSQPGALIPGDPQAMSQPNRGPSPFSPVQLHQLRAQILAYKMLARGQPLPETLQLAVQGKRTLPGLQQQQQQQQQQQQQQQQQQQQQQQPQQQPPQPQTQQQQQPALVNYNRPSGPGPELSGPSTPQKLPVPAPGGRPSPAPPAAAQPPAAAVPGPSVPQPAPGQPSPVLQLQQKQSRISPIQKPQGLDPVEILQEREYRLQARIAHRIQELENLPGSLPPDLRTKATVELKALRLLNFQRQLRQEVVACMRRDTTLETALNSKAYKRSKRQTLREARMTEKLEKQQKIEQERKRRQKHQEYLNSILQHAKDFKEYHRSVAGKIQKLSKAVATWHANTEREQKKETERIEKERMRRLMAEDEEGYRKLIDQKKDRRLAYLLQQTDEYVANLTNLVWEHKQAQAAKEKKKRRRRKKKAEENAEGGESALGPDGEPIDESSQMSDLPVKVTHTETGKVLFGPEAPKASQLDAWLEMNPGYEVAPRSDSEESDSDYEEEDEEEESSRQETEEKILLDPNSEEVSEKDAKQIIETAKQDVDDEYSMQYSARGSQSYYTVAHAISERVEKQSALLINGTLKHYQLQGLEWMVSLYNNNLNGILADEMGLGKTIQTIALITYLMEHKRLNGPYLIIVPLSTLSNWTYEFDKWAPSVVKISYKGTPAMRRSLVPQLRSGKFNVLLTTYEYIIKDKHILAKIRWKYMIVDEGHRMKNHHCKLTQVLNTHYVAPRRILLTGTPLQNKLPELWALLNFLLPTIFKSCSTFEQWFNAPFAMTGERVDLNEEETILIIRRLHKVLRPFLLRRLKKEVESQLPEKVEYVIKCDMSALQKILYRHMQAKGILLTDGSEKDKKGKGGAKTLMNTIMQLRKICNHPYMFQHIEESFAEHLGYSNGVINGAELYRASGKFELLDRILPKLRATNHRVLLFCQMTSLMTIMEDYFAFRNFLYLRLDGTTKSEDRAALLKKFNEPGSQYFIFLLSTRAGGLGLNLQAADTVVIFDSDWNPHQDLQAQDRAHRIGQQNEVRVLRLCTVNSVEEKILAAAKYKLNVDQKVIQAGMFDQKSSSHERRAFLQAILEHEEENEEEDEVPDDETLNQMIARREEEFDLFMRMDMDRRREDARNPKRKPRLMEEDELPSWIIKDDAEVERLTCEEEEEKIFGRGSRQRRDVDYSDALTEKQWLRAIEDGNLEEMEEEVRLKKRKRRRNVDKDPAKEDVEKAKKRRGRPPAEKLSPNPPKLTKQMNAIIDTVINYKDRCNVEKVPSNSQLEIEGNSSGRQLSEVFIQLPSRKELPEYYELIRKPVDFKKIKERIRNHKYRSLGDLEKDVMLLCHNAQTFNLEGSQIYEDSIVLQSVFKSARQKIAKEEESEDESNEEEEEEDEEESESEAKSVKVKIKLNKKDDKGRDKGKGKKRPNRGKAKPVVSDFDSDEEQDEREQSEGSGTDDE
UniProt P51532, whole entry: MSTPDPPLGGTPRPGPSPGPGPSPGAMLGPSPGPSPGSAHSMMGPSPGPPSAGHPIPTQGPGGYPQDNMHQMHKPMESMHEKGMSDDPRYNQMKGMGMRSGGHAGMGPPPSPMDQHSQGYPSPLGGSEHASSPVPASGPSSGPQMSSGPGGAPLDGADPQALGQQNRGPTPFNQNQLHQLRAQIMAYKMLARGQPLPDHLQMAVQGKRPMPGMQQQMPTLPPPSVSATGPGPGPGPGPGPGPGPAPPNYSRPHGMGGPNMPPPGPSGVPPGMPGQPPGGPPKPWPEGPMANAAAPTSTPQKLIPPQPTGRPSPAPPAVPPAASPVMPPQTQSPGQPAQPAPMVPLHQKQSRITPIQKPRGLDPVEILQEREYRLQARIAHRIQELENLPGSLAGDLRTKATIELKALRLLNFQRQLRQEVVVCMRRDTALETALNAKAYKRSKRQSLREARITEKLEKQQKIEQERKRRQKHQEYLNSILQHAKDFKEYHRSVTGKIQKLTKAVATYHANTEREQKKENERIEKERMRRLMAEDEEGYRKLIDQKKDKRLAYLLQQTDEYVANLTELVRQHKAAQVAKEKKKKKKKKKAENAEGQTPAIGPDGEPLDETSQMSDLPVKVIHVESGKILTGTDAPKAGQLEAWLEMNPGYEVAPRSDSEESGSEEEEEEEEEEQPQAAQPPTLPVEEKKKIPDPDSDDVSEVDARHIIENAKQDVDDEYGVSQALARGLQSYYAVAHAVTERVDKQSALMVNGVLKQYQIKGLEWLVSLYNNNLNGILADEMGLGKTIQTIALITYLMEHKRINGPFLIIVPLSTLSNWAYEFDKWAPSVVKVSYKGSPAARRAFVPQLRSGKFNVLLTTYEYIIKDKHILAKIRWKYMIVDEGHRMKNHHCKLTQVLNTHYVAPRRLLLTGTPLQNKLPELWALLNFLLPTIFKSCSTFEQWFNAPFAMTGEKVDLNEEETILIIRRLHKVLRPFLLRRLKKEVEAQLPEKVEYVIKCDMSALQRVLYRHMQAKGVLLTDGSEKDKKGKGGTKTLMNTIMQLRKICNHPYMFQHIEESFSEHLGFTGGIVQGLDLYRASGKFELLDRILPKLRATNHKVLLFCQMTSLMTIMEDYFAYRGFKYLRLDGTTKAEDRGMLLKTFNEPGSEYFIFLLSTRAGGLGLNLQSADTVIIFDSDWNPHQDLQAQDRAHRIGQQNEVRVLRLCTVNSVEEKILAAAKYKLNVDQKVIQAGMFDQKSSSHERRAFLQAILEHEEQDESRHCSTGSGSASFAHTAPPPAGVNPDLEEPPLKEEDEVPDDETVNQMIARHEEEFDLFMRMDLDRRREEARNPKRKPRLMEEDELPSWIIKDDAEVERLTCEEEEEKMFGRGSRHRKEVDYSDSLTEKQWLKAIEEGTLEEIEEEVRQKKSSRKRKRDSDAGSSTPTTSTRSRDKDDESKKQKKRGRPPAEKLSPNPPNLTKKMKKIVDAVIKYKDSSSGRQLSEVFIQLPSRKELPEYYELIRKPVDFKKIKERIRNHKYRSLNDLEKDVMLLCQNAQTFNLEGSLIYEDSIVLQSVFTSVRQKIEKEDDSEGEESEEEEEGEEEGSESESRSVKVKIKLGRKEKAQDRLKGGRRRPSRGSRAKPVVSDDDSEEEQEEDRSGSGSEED

SMARCA2 [2] = target: T1, SMARCA2; assay: MSD SMARCA2 degradation in NCI-H1299 cell line (24 h); conditions: for SMARCA2 MSD H1299 degradation 24 h: Dmax %: NCI-H1299 cells; for DC50: read-out: SMARCA2 MSD H1299 degradation 24 h: External Abs-DC50, NCI-H1299 cells
Method: Example 32. MSD SMARCA2 Degradation in […] Cell Line
Cell Culture: Cells were cultured in exponential growth phase.
Compound Preparation and Treatment: NCI-H1299 cells were seeded into the 96-well plate at 4.0*10^4 cells per 100 ul per well. Incubate the plate in the incubator overnight. The next day, compounds were diluted to designed stock concentration by TECAN, then perform a 3 fold, 9-point dilution via transferring 15 uL compound into 30 μL DMSO using Apricot. 200 nL diluted compound from compound source plate were transferred into the 96-intermediate plate as designated by using Echo550, followed with 100 ul culture medium to make the 2× compound solution. Cell plate were changed with 80 ul of fresh culture medium and 80 ul of 2× compound solution was added into the well to achieve the final designed concentration. Cell plate was then shaken at 720 rpm for 5 min and incubated for 24 hours in the incubator.
Sample Preparation: Media was aspirated from the cultures and the plate was washed with PBS twice. 60 ul of pre-chilled PIPA lysis buffer (Boston BioProducts BP-115D) with protease inhibitor were directly added into the well to lyze the cells for 20 minutes at 4° C. Cell lysates were collected.
MSD Procedure: The MSD plate was coated with 40 ul cell lysate and incubated at 4° C. overnight. The next day, the MSD coated bare plate was washed 3 times with 150 ul 1×TBST per well, blocked with 150 ul of blocking buffer per well, and shaken for 1 hour at RT, 600 rpm. Blocking buffer was 3% Blocker A in TBST. MSD plate was then washed 3 times with 150 ul 1×TBST per well and Primary Detection antibody (Rabbit anti-SMARCA2/BRM antibody, 100 μg/ml, ab223735) was added to a final [conc.]: 0.3 ug/ml, 25 ul/well and shaken for 1 hour at RT, 600 rpm. Antibody was prepared in Antibody Detection buffer (1% Blocker A in 1×TBST). The MSD plate was then washed 3 times with 150 ul 1×TBST per well. Secondary Detection antibody (SULFO-TAG anti-species antibody) was then added to a final [conc.]: 1 ug/ml, 25 ul/well, and shaken for 1 hour at RT, 600 rpm. Antibodies were prepared in Antibody Detection buffer (1% Blocker A in 1×TBST). MSD plate was washed 3 times with 150 ul 1×TBST per well and 2×MSD reading buffer was added, 150 ul per well, and diluted from 4× with water. MSD instrument was then read.
Data Analysis: The percentage of relative level of SMARCA2 level was calculated following equation below.
LC: A2780, SMARCA2 negative cells. HC: NCI-H1299 cells treated with DMSO.
The letter codes for SMARCA2 degradation potency (DC50) include: A (<100 nM), B (100-500 nM), C (501-1000 nM), and D (>1000 nM). […]

SMARCA4 = SMARCA4 (Homo sapiens, UniProt P51532); assay: SMARCA4 Western blot MV4-11 degradation; conditions: for SMARCA4 WB MV411 degradation 24 h: Average Dmax %: MV4-11 cells; for DC50: read-out: SMARCA4 WB MV411 degradation 24 h: Average external-Abs DC50, MV4-11 cells
Method: Cells were seeded into 6-well plates (MV4-11: 4×10^6 cells/well/1 ml) and 1 ml of 2× compound solution was added into the well to make the final concentration and the plates were mixed well and incubated for 24 hours (No cytotoxicity was observed). The cell were collected with media and spun at 3000 rpm for 5 minutes. The supernatant was aspirated and the well and the cells were washed with cold PBS once and combined for centrifugation again; the supernatant aspirated again. 200 ul pre-chilled RIPAlysis buffer (Boston BioProducts BP-115D) with protease/phosphatase inhibitor (Roche 05892791001/Roche 04906837001) was directly added into the tube to lyze the cells for 20 minutes on ice. The cell lysate were collected into EP tubes and spun at 13000 rpm for 20 minutes and 72 ul supernatant was transferred to a fresh EP tube containing 18 ul of 5× loading buffer (Beyotime Bio P0015) to make the loading samples. The samples were heated to 100° C. for 10 minutes and cooled to RT and microcentrifuged. 20 ul of samples were loaded onto SDS-PAGE gel (Novex, WG1402BOX) and the gel was run at 80 V for 20 minutes and 120 V for 1.5 hours. The samples were electrotransfer to a NC membrane using wet-transfer method with 250 mA for 2.5 hours. The membrane was blocked with LICOR blocking buffer (LI-COR, 927-50000) for 1 hour. The membrane was washed three times with TBST (CST #9997S), 5 minutes each. Incubation was performed with primary antibody prepared in blocking buffer with 0.1% Tween-20 (Solarbio, P8220) at 4° C. overnight (Anti-SMARCA2/BRM antibody (ab15597) 1:500; Anti-BRG1 antibody [EPR3912] (ab108318) 1:1000; Rabbit anti-Baf180 antibody [EPR15860] (Abcam, ab196022) 1:1000; mouse anti-beta-Actin (8H10D10) (CST #3700) 1:10000). The membrane was washed three times with TBST, 5 minutes each. Incubation with secondary antibody was performed for 1 hour at RT (anti-rabbit IgG (Licor, 926-32211) 1:5000; anti-mouse IgG (LI-COR, 926-68070) 1:5000). The membrane was washed three times with TBST, 5 minutes each and lastly the LiCOR was read.
as §1, with “SMARCA” for “SMARCA2”

SMILES | SMARCA2 MSD A549 degradation 24 h: Average Dmax % (SMARCA2 [1]) | DC50 (SMARCA2 [1]) [nM] | SMARCA2 MSD H1299 degradation 24 h: Dmax % (SMARCA2 [2]) | DC50 (SMARCA2 [2]) [nM] | SMARCA4 WB MV411 degradation 24 h: Average Dmax % (SMARCA4) | DC50 (SMARCA4) [nM]
Cc1ncsc1-c1ccc(CNC(=O)[C@@H]2C[C@@H](O)CN2C(=O)[C@@H](NC(=O)CCCN2CCC[C@@H](Cn3cc(-c4cc(-c5ccccc5O)nnc4N)cn3)C2)C(C)(C)C)cc1 |  |  | D (D (<50% degradation)) | 100 to 500 | D (D (<50% degradation)) | 100 to 500
Cc1ncsc1-c1ccc(CNC(=O)[C@@H]2C[C@@H](O)CN2C(=O)[C@@H](NC(=O)CCCCN2CCCC(n3cc(-c4cc(-c5ccccc5O)nnc4N)cn3)C2)C(C)(C)C)cc1 (some centres unmarked) |  |  | D (D (<50% degradation)) | 100 to 500 | D (D (<50% degradation)) | 100 to 500
Cc1ncsc1-c1ccc(CNC(=O)[C@@H]2C[C@@H](O)CN2C(=O)[C@@H](NC(=O)C2CCC(CN(C)C(=O)c3cnc(N4C5CCC4CN(c4cc(-c6ccccc6O)nnc4N)C5)nc3)CC2)C(C)(C)C)cc1 (some centres unmarked) | C (C (50-70% degradation)) | 501 to 1000 |  |  |  | 
Cc1ncsc1-c1ccc(CNC(=O)[C@@H]2C[C@@H](O)CN2C(=O)[C@@H](NC(=O)CCCN2CCC[C@H](Cn3cc(-c4cc(-c5ccccc5O)nnc4N)cn3)C2)C(C)(C)C)cc1 | D (D (<50% degradation)) | > 1000 |  |  |  | 

Further lines, results first:

SMARCA2 MSD A549 degradation 24 h: Average Dmax % (SMARCA2 [1]) | DC50 (SMARCA2 [1]) [nM] | SMARCA2 MSD H1299 degradation 24 h: Dmax % (SMARCA2 [2]) | DC50 (SMARCA2 [2]) [nM] | SMARCA4 WB MV411 degradation 24 h: Average Dmax % (SMARCA4) | DC50 (SMARCA4) [nM] | SMILES
D (D (<50% degradation)) | > 1000 |  |  |  |  | Cc1ncsc1-c1ccc(CNC(=O)[C@@H]2C[C@@H](O)CN2C(=O)[C@@H](NC(=O)CN2CCC[C@H](Cn3cc(-c4cc(-c5ccccc5O)nnc4N)cn3)C2)C(C)(C)C)cc1
C (C (50-70% degradation)) | 501 to 1000 |  |  | C (C (50-70% degradation)) | > 1000 | Cc1ncsc1-c1ccc(CNC(=O)[C@@H]2C[C@@H](O)CN2C(=O)[C@@H](NC(=O)[C@H]2CC[C@@H](CN(C)Cc3cnc(N4C5CCC4CN(c4cc(-c6ccccc6O)nnc4N)C5)nc3)CC2)C(C)(C)C)cc1
D (D (<50% degradation)) | > 1000 |  |  |  |  | Cc1ncsc1-c1ccc(CNC(=O)[C@@H]2C[C@@H](O)CN2C(=O)[C@@H](NC(=O)CCN2CCCC(n3cc(-c4cc(-c5ccccc5O)nnc4N)cn3)C2)C(C)(C)C)cc1 (some centres unmarked)

— patent publication US12624044B2, “SMARCA degraders and uses thereof” (Kymera Therapeutics, Inc., priority 2019, dated 2026)
